Measured values taken from patent US6737237B1, “Antimicrobial agents, diagnostic reagents, and vaccines based on unique Apicomplexan parasite components” (Apicomplexan Therapeutics, LLC, priority 1999, dated 2004).

System: T. gondii tachyzoites (RH strain)
Format: cell-based, Toxoplasma gondii
Experimental: The improvements are based on microscopic visual imspection of infected and inhibitor treated cultures, and on quantitation of nucleic acid synthesis of the parasite by measure intake of ^3H uracil onto the parasite's nucleic acid. Uracil is not utilized by mammalian cells. […] Only the RH strain tachyzoites, cultured for up to 72 hours, had been used in previously reported assays. The use of Me49, Ptg, and R5 mutant are unique aspects of the methods used in these assays in this invention.
In these assays toxicity of a candidate inhibitor was assessed by its ability to prevent growth of human foreskin fibroblasts (HFF) after 4 days and after 8 days as measured by tritiated thymidine uptake and microscopic evaluation. Confluent monolayers of HFF were infected with tachyzoites and bradyzoites. Inhibitor was added one hour later. Non-toxic doses were used in parasite growth inhibition assays. Parasite growth was measured by ability to incorporate tritiated uracil during the last 18 hours of culture.
First the toxicity of gabaculine was assessed by its ability to prevent growth of human foreskin fibroblasts (HFF) as measured by ^3H-thymidine uptake and microscopic evaluation. […] Parasite growth was measured by the ability to incorporate ^3H-uracil during the last 18 hours of culture. In addition, parasite growth was evaluated microscopically in Giemsa stained slides. […]

Structure (SMILES): O=C(NO)c1ccccc1O [SHAM, Salicylhydroxamic acid]
- activity against T. gondii (tachyzoites): effective
